Measured values from US9260439B2, “Dihydropyrrolopyrimidine derivatives” (PFIZER INC., priority 2014, dated 2016).

By UniProt entry, the sequences of proteins in these tests, tags left out.
UniProt P42336, whole entry: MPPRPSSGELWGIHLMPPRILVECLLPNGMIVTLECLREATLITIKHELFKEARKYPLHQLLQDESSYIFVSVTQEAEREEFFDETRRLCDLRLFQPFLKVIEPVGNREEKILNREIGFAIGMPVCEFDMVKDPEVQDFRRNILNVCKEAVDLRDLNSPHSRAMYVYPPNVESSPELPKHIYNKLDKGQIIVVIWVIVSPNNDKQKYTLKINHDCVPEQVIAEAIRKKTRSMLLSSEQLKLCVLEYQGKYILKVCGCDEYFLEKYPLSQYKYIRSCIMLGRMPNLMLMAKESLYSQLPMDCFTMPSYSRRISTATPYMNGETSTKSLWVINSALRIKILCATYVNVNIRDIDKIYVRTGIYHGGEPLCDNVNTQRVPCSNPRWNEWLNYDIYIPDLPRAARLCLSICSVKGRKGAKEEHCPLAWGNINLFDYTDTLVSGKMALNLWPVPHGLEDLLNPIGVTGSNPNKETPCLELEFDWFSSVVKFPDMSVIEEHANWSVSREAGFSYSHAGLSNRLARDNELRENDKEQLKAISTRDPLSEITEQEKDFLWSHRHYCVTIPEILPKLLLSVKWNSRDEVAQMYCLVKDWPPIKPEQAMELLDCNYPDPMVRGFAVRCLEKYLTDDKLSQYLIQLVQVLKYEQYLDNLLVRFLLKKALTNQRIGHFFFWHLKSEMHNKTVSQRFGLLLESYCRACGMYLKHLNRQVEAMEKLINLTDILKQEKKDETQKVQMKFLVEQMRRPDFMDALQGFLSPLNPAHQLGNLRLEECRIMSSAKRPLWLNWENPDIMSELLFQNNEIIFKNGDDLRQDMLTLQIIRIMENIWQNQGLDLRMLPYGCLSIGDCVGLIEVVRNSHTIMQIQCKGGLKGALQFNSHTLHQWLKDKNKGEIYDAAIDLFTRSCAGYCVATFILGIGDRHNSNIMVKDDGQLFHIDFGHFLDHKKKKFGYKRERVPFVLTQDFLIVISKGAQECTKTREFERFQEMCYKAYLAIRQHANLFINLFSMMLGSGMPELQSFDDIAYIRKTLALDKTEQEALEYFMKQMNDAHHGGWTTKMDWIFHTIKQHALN

Biological target: truncated PI3Kα (p110α/iSH2 p85α) (Homo sapiens (Human), UniProt P42336)
Assay: PI3KA_Act fluorescence polarization kinase assay (Ki)
Settings: 1 mM ATP, tested form: HCl
Text: 2) p110α-iSH2 p85α Complex (Full Length p110α and p85α iSH2)(“PI3KA_Act”)
Genes encoding for full length p110α and p85α nSH-iSH2=niSH2 (p85a aminoacids 322-600) subunits of PI3Kα complex were subcloned from existing constructs into pFASTBAC Dual vector (Life Technologies, Carlsbad, Calif.) using standard cloning procedures. Gene encoding p110α subunit was subcloned into polyhedrine promoter while gene encoding p85α niSH2 domains was subcloned into p10 promoter. Additionally, Human Rhinovirus 3C Protease (“HRV 3C”) site was introduced between nSH2 and iSH2, replacing aminoacids 431-438 of p85α with LEVLFQGP HRV 3C recognition sequence, using standard QuickChange mutagenesis protocol (Agilent Technologies, CA). Recombinant baculovirus was generated using Bac-to-Bac protocol (Life Technologies, Carlsbad, Calif.). Large scale expression was conducted in Sf21 (Life Technologies, Carlsbad, Calif.) cells at a multiplicity of infection (“MOI”)=1 for 48 hours. […]
The biochemical assays of kinase activity of full-length PI3Kα (full-length p110α/p85a) or truncated PI3Kα (p110α/iSH2 p85a) were conducted using a fluorescence polarization format similar to the procedure of Yuan J., et al., (2011) “PF-04691502, a Potent and Selective Oral Inhibitor of PI3K and mTOR Kinases with Antitumor Activity”, Mol Cancer Ther. 10, 2189-2199. […]

SMILES: C[C@@H]1COCCN1c1nc(-c2cnc(N)nc2)c2c(n1)N([C@@]1(C)CCN(C(=O)C(C)(C)N)C1)CC2
- PI3KA_Act Ki: 1.040 nM
